{"source": "ChEMBL document CHEMBL3588773", "about": "“Volume of Distribution in Drug Design” (J Med Chem, 2015)", "test": "Half life in human", "type": "ADME, organism-based", "conditions": "in vivo"}
{"smiles": "CC[C@H]1OC(=O)[C@H](C)[C@@H](O[C@H]2C[C@@](C)(OC)[C@@H](O)[C@H](C)O2)[C@H](C)[C@@H](O[C@@H]2O[C@H](C)C[C@H](N(C)C)[C@H]2O)[C@](C)(O)C[C@@H](C)C(=O)[C@H](C)[C@@H](O)[C@]1(C)O", "note": "[ERYTHROMYCIN]", "values": [{"measurement": "half-life", "result": 2, "unit": "h"}]}
